Earlier results as cited in US11639530B2, “CD133 related to anticancer agent resistance in colon cancer and use thereof” (KOREA UNIVERSITY RESEARCH AND BUSINESS FOUNDATION, priority 2019, dated 2023).

Test system: certain types of cancer in which EGFR downstream signaling molecules including KRAS are activated
Details: cancers with activated EGFR downstream signaling molecules including KRAS; cited from earlier work

In the case of `COc1cc2ncnc(Nc3ccc(F)c(Cl)c3)c2cc1OCCCN1CCOCC1` [gefitinib], the gefitinib efficacy is given as “insignificant”.
